According to publication PMC6006426 (2018):

Tested on: GFP-fused MATE1 protein
Details: preliminary study

In the case of `C[C@@H](Oc1cc(-c2cnn(C3CCNCC3)c2)cnc1N)c1c(Cl)ccc(F)c1Cl` [Crizotinib, crizotinib], the “Change of intracellular signals of GFP-fused MATE1 protein” value is reported as “no change”.
